This is an account of results in patent publication US8961959B2, “Glucosylceramide synthase inhibitors and therapeutic methods using the same” (The Regents of the University of Michigan, priority 2011, dated 2015).

The subject of this assay is MDR1-MDCKII cells. As to the kind of experiment: GCS inhibition (GlcCer production) in MDCKII cells stably expressing human MDR1. It counts as cell-based, canine. As to the method: Parental (WT-)MDCKII cells and MDCKII cells retrovirally transduced with human MDR-1 cDNA were obtained from the Netherlands Cancer Institute. Both cell lines were routinely maintained in medium consisting of Opti-MEM/F 12 (1:1), 5% FBS, 100 U/mL of penicillin, 100 μg/mL streptomycin and […] L-glutamine. MDCKII cells were newly thawed from frozen ampules every two months.
Stock solutions of water-insoluble glycosphingolipid inhibitors (100 mM) were prepared by dissolving each inhibitor into 100% ethanol as previously described (3). The inhibitor-ethanol solutions then were diluted 50× into 2 mM delipidated bovine serum albumin-phosphate buffered saline solution to make water-soluble glycosphingolipid inhibitor-bovine serum albumin complexes. The inhibitor-bovine serum album complexes were sterile-filtered and stored at −20° C. […]
Following inhibitor treatment, whole cellular lipids of wild type and MDR1-MDCKII cells were extracted as previously described in detail (10). […] A portion of purified glycosphingolipids normalized to 100 nmol of total phospholipids was analyzed by high performance thin layer chromatography. […] The levels of glucosylceramide were detected by charring with 8% cupric sulfate in 8% phosphoric acid, and quantified by densitometric scanning using ImageJ, NIH Image.

Structures are written as SMILES.

As for `O=C(CC1Cc2ccccc2C1)N[C@H](CN1CCCC1)[C@H](O)c1ccc2c(c1)OCCO2` [Compound 3h, 2-(2,3-dihydro-1H-inden-2-yl)-N-((1R,2R)-1-(2,3-dihydrobenzo[b][1,4]dioxin-6-yl)-1-hydroxy-3-(pyrrolidin-1-yl)propan-2-yl)acetamide], the “increase in IC50 in MDR1-MDCKII cells compared to WT” value is below 2 fold. The MDR/WT (ratio of MDR1-MDCKII IC50 divided by WT-MDCKII IC50) came to 1.6.
